Activity calls are given as the source filed them. The rule behind the calls is not given here.

For the test, the target named is T1, Protein ENL (Homo sapiens) (UniProt Q03111).
T1 sequence (whole entry): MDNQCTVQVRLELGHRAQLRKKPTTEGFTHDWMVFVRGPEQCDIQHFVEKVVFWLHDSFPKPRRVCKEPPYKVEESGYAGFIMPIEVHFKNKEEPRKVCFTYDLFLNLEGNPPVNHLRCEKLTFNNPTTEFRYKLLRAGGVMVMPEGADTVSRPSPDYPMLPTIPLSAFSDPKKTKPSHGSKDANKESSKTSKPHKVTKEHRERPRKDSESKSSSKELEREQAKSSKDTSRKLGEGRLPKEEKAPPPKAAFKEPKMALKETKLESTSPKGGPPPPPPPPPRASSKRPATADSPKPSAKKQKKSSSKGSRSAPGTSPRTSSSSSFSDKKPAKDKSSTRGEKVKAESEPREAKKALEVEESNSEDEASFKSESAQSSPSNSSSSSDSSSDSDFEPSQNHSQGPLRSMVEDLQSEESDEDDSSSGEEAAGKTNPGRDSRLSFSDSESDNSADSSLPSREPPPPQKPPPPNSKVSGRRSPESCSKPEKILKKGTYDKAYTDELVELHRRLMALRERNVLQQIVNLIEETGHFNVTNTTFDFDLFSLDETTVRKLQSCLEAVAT
Put plainly: Binding affinity to recombinant C-terminal His6-tagged ENL YEATS domain (1 to 148 residues) (unknown origin) expressed in expressed Escherichia coli Rosetta assessed as change in melting temperature by thermal shift assay.
Take `O=C(CCl)Nc1ccccc1`: the result was inactive.
As for `O=C(Cn1ccc2ccccc21)Nc1ccc2[nH]ccc2c1`, the entry is “inactive”; as for `Cn1c(CN2CCCCC2)nc2cc(NC(=O)c3ccc(Cl)cc3)ccc21`, “inactive”.
Regarding `O=C(Nc1ccc(Cl)c(Cl)c1)Nc1cccc2cccnc12`, the result was inactive.
For the compound `CC(C)(C)c1ccc(C(=O)Nc2ccc(CCC(=O)O)cc2)cc1`, the result was inactive.
In the case of `Cc1ccc(CC(=O)Nc2cccnc2)cc1`, the outcome was inactive.
The same measure for `O=C(Cc1cccc(F)c1)NC1=NCCS1`: “inactive”.
With `CC(=O)Nc1ccncc1`, the result was inactive.
In the case of `Cc1ccc(C(=O)Nc2cccc3cccnc23)cc1C`, the result was inactive.
As for `Cc1ccc(C(=O)Nc2cccnc2)cc1`, the entry is “inactive”; as for `CC(=O)Nc1ccc2c(c1)nc(C)n2C`, “inactive”; as for `N#CCC(=O)Nc1cccnc1`, “inactive”.
Consider `O=C(Nc1ccc2nccnc2c1)c1ccc(F)cc1`, for which the result was inactive.
As for `O=C(O)Cc1ccc(NC(=O)c2cccc(-c3cc(Cl)cc(Cl)c3)c2)cc1`, the entry is “inactive”.
With `O=C(c1cnccn1)N1CCSCC1`, the outcome was inactive.
Regarding `CC(=O)Nc1ccc2cc[nH]c2c1`, the result was inactive.
The same measure for `CC(=O)Nc1ncnc2[nH]cnc12`: “inactive”; for `O=C(NCc1cccc(Cl)c1)c1ccc2c(c1)ncn2CCN1CCCC1`: “inactive”.
Take `O=C(CCl)Nc1cccnc1`: the outcome was inactive.

(Values after ChEMBL document CHEMBL4261641, “Structure-Based Approach toward Identification of Inhibitory Fragments for Eleven-Nineteen-Leukemia Protein (ENL)” (J Med Chem, 2018).)
